In the library only some 1.3% were active in any assay of this set; here they are far more common.
E-selectin induc: E-selectin induction in HUVECs, primary screen, imaging, HUVEC, immunofluorescence imaging, single point; normalized: neutral wells 0, TNF-alpha wells 100; activation, % at 7.58 µM; P16581; hit rate 0.37% among 260,000;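 active = mean E-selectin-positive cell signal at least 10% of the positive control, reached in at least 60% of replicates, without over 20% cell loss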
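Read-out: % PE-positive cells | Test system: HUVEC | Doses: One compound dose added by pin transfer | Buffer or medium: EGM-2 over gelatin coat | Signal: Immunofluorescence imaging | Benchmarks: TNF-alpha, DMSO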
S100A4 MyoIIA: inhibitors of S100A4-myosin IIA peptide binding, primary screen, biochemical, fluorescence polarization, TAMRA-MyoIIA peptide | Protein S100-A4 (Homo sapiens), P26447 | inhibition, % at 10.7 µM | hit rate 0.14% among 360,000;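 active = mean inhibition of at least 70% across replicates, with every replicate also reaching that level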
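System – human S100A4 monomer protein, biochemical binding assay · Buffer or medium – Calcium-containing HEPES buffer, pH 7.2 · Timing – 5 min between mix addition and reading · Also added – TAMRA-labelled myosin IIA heavy-chain peptide probe, 5 nM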
ARNT-TACC3 inh: disruptors of ARNT/TACC3 protein interaction, primary screen, biochemical, AlphaScreen, single concentration; AlphaScreen His-ARNT PAS-B/GST-TACC3 binding, luminescence; TACC3 fragment carries E629A point mutation; Transforming acidic coiled-coil-containing protein 3 (Homo sapiens), Q9Y6A5; inhibition, % at 9.99 µM; hit rate 0.66% among 390,000;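 active = mean inhibition of replicates at least 50% and at least half of replicates each reaching 50%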;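 also: 0% = complete ARNT plus TACC3 wells and 100% = ARNT alone without TACC3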
AF4-AF9 inh: inhibitors of AF4 peptide binding to AF9, primary screen, biochemical, AlphaScreen, biotin-AF4 peptide, FLAG-AF9, single point | hit rate 0.47% among 350,000 | AID 651704, 2012 | Protein AF-9 (Homo sapiens), P42568 | inhibition, % at 10 µM;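 active = every replicate reaching a set inhibition limit, whatever the replicate mean, cut at about 25% in these data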;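 also: 0% = plate neutral control median and 100% = total signal loss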
UUG fidelity: alters start codon recognition fidelity in yeast; AID 602363; activity score, % at 18.7 µM; 350,000 tested, 0.13% active; S. cerevisiae UUG-firefly luciferase reporter, luminescence/redox ratio;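 active means replicate mean at a twofold rise or more, about +100% in these data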;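 further: firefly luciferase made from a UUG start codon reports start codon fidelity; reporter light over untreated wells divided by growth signal over untreated wells; some hits fall short of that in this replicate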
ERAP1 inh: human ERAP1 aminopeptidase inhibitors, primary screen, biochemical, single point, plate reader. recombinant ERAP1, Leu-AMC fluorescence, 60 min. inhibition, % at 10.7 µM. hit rate 0.15% among 340,000. AID 652197, 2013;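 active = mean replicate inhibition of at least 30%, or all replicates individually reaching that 30% level; inactive = mean below 30% and not every replicate reaching it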;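 also: 0% = neutral control wells and 100% = L-leucinethiol positive control wells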
* marks the source's active call; other numbers are inactive results; ! = repeats disagree.

Chains of the proteins cited; added tags and fusions are not shown.
Protein AF-9 (Homo sapiens), P42568, UniProt P42568, whole entry, looked up: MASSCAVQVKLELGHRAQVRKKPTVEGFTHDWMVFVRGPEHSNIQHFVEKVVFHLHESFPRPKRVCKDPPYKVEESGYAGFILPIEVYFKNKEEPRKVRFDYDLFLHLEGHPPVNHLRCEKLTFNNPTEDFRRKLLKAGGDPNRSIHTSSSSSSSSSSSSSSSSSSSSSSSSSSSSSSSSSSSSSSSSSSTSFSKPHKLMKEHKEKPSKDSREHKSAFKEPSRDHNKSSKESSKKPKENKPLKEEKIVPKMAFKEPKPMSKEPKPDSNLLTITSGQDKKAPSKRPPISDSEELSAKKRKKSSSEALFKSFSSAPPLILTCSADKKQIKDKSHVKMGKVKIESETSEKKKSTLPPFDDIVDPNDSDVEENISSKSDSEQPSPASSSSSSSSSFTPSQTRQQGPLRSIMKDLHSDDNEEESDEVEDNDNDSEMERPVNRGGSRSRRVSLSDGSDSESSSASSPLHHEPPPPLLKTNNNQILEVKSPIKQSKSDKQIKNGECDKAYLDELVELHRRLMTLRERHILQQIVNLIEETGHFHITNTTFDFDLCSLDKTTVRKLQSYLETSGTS

For C[C@@H]1CN([C@H](C)CO)C(=O)c2cc(NC(=O)Nc3cccc4ccccc34)ccc2O[C@@H](C)CCCCO[C@H]1CN(C)S(=O)(=O)c1ccc(F)cc1 the results were E-selectin induc 1.5, S100A4 MyoIIA -23.8, ARNT-TACC3 inh -0.7, AF4-AF9 inh -1.4, UUG fidelity -11.5 and ERAP1 inh -3.0.
Screening COc1ccc(CN(C)C[C@@H]2OCCCC[C@@H](C)Oc3ccc(NC(=O)CCCN(C)C)cc3C(=O)N([C@H](C)CO)C[C@H]2C)cc1 returned E-selectin induc 1.0, S100A4 MyoIIA 25.1, ARNT-TACC3 inh -1.8, AF4-AF9 inh -1.2, UUG fidelity 2.0 and ERAP1 inh 0.8.
CC(=O)Nc1ccc(CNc2nc(NC(C)C)nc3cc(-c4ccccc4)sc23)cc1 was read as E-selectin induc 32.6*, S100A4 MyoIIA -5.3, AF4-AF9 inh 0.6 and ERAP1 inh 7.1.
For O=C(C1CCCC1)N1[C@@H](CO)[C@@H](c2ccccc2)C12CN(CCC(F)(F)F)C2 the results were E-selectin induc 0.0, S100A4 MyoIIA -5.8, AF4-AF9 inh -1.2 and ERAP1 inh -0.3.
`CCc1ccc(S(=O)(=O)/N=C2/C=C(Sc3ncn[nH]3)C(=O)c3ccccc32)cc1` gave ARNT-TACC3 inh 35.8*.
`CCc1ccc(S(=O)(=O)/N=C2\C=C(Nc3ccc(O)cc3)C(=O)c3ccccc32)cc1` gave ARNT-TACC3 inh 44.5 and UUG fidelity -21.0.
For CCc1ccc(S(=O)(=O)/N=C2\C=C(Nc3cccc(C(=O)O)c3)C(=O)c3ccccc32)cc1 the results were E-selectin induc -0.1, S100A4 MyoIIA 0.2, ARNT-TACC3 inh 68.5*, AF4-AF9 inh 9.5, UUG fidelity -16.8 and ERAP1 inh -24.1.
For COCCNC(=O)[C@@H]1[C@@H](CO)[C@@H]2Cn3c(ccc(-c4ccccc4OC)c3=O)[C@@H]2N1C(=O)C1CCC1 the results were E-selectin induc -0.1, S100A4 MyoIIA 59.8, AF4-AF9 inh -3.0 and ERAP1 inh 1.8.
`Cc1ccc(S(=O)(=O)N2C[C@H](O)COC[C@H]3O[C@H](CC(=O)NCCN4CCCCC4)CC[C@@H]32)cc1` gave E-selectin induc -0.1, S100A4 MyoIIA -6.7, ARNT-TACC3 inh 3.0, AF4-AF9 inh -0.6, UUG fidelity 2.9 and ERAP1 inh -0.3.
For COCC(=O)N(C)C[C@H]1Oc2ncc(C3=CCCC3)cc2C(=O)N([C@H](C)CO)C[C@H]1C the results were E-selectin induc -0.1, S100A4 MyoIIA 0.4, ARNT-TACC3 inh -2.4, AF4-AF9 inh -1.5, UUG fidelity 5.6 and ERAP1 inh 0.0.
`CCCN(C)C[C@@H]1Oc2cc(C#Cc3ccncc3)ccc2S(=O)(=O)N([C@H](C)CO)C[C@@H]1C` gave E-selectin induc -0.2, S100A4 MyoIIA -4.5, ARNT-TACC3 inh -3.0, AF4-AF9 inh -0.8, UUG fidelity -5.3 and ERAP1 inh 1.6.
`COC(=O)[C@@H]1[C@@H](CO)[C@@H]2Cn3c(ccc(C4=CCCCC4)c3=O)[C@@H]2N1Cc1ccc2c(c1)OCO2` gave E-selectin induc -0.2, S100A4 MyoIIA 6.8, ARNT-TACC3 inh 15.9, AF4-AF9 inh 3.2 and ERAP1 inh 8.6.
`CCCCn1c(O)c(/C=C2\C=Nc3ccccc32)c(=O)[nH]c1=O` gave E-selectin induc 0.1, S100A4 MyoIIA 80.6*, ARNT-TACC3 inh -25.1, AF4-AF9 inh -8.2, UUG fidelity 0.0 and ERAP1 inh 1.8.
CO[C@H]1CN(C)C(=O)c2ccc(NS(C)(=O)=O)cc2OC[C@H](C)N(Cc2cccnc2)C[C@@H]1C was read as E-selectin induc 0.1, S100A4 MyoIIA -0.5, ARNT-TACC3 inh -0.3, AF4-AF9 inh 0.7, UUG fidelity -4.7 and ERAP1 inh 3.3.
For C[C@H]1CN([C@@H](C)CO)C(=O)c2cc(C#CC3CC3)cnc2O[C@H]1CN(C)Cc1ccccn1 the results were E-selectin induc -0.3, S100A4 MyoIIA 2.1, ARNT-TACC3 inh 30.7, AF4-AF9 inh -0.4, UUG fidelity -7.3 and ERAP1 inh -2.1.

Quoted at random: 2 compounds from above
CC(=O)Nc1ccc(CNc2nc(NC(C)C)nc3cc(-c4ccccc4)sc23)cc1 was read as E-selectin induc 32.6*, S100A4 MyoIIA -5.3, AF4-AF9 inh 0.6 and ERAP1 inh 7.1.
`CCCCn1c(O)c(/C=C2\C=Nc3ccccc32)c(=O)[nH]c1=O` gave E-selectin induc 0.1, S100A4 MyoIIA 80.6*, ARNT-TACC3 inh -25.1, AF4-AF9 inh -8.2, UUG fidelity 0.0 and ERAP1 inh 1.8.

Continuation.
`CCOC(=O)c1c(C)n(OCc2ccccc2)c2ccc3nonc3c12` gave S100A4 MyoIIA -3.4, ARNT-TACC3 inh -2.9, AF4-AF9 inh 33.2*, UUG fidelity -15.0 and ERAP1 inh -6.4.
`COc1ccc(S(=O)(=O)N(C)C[C@@H]2Oc3c(NS(=O)(=O)c4ccc(Cl)cc4)cccc3C(=O)N([C@H](C)CO)C[C@H]2C)cc1` gave E-selectin induc -0.2, ARNT-TACC3 inh 1.6 and UUG fidelity -7.9.
`COc1ccc(-c2nc3cnccn3c2Nc2ccc3c(c2)OCO3)cc1` gave E-selectin induc -0.2, S100A4 MyoIIA 1.6, ARNT-TACC3 inh 10.4, AF4-AF9 inh 27.7*, UUG fidelity -3.2 and ERAP1 inh 7.1.
Screening CN1CCN(Cc2cc(COCc3ccccc3)c3cccnc3c2O)CC1 returned ARNT-TACC3 inh 2.0 and UUG fidelity 16.1.
For Oc1c(CN2CCc3ccccc3C2)cc(Cl)c2cccnc12 the results were ARNT-TACC3 inh 58.2* and UUG fidelity -52.3.
`O=C(NC1CCCC1)N[C@H]1CC[C@@H](CC(=O)N2CCOCC2)O[C@@H]1CO` gave E-selectin induc 0.0, S100A4 MyoIIA 4.5, ARNT-TACC3 inh -4.4, AF4-AF9 inh 0.3, UUG fidelity -12.9 and ERAP1 inh -1.5.
Screening O=C(N/N=C/c1ccc2c(c1)OCO2)c1cc(-c2ccc(F)cc2)nc2ccccc12 returned E-selectin induc 0.8, S100A4 MyoIIA -1.9, ARNT-TACC3 inh -3.0, AF4-AF9 inh 3.9, UUG fidelity -5.7 and ERAP1 inh -1.8.
`O=C(O)COc1ccccc1/C=N/NC(=O)c1cc(-c2ccc(F)cc2)nc2ccccc12` gave S100A4 MyoIIA 1.3, ARNT-TACC3 inh 47.0*, AF4-AF9 inh 2.2, UUG fidelity 0.0 and ERAP1 inh -45.0.
`Cc1ccc2c(c1)S/C(=C/c1ccc[n+](C)c1)N2CCO` gave E-selectin induc 3.7, S100A4 MyoIIA 2.2, ARNT-TACC3 inh -2.6, AF4-AF9 inh 0.3 and ERAP1 inh 52.5*.
`COc1cc2c(C#N)c(N3CCCC3)nc(N)c2c(N)n1` gave E-selectin induc 0.5, S100A4 MyoIIA -3.3, ARNT-TACC3 inh 33.7*!, AF4-AF9 inh -26.7, UUG fidelity -1.1 and ERAP1 inh 1.5.
CC(=O)N(C)C[C@@H]1Oc2ncc(-c3ccccc3C)cc2C(=O)N([C@H](C)CO)C[C@H]1C was read as E-selectin induc 0.1, S100A4 MyoIIA 1.0, ARNT-TACC3 inh -17.6, AF4-AF9 inh -2.3, UUG fidelity -13.2 and ERAP1 inh -4.4.

Structural class: the entries above containing a Cl atom (2)
`COc1ccc(S(=O)(=O)N(C)C[C@@H]2Oc3c(NS(=O)(=O)c4ccc(Cl)cc4)cccc3C(=O)N([C@H](C)CO)C[C@H]2C)cc1` gave E-selectin induc -0.2, ARNT-TACC3 inh 1.6 and UUG fidelity -7.9.
For Oc1c(CN2CCc3ccccc3C2)cc(Cl)c2cccnc12 the results were ARNT-TACC3 inh 58.2* and UUG fidelity -52.3.

Compound activity deposited in PubChem BioAssay by Broad Institute.
